The numbers were not newly measured in patent publication US7179939B2, “Sodium ferric gluconate complexes and method of manufacture thereof” (priority 2004, dated 2007), which cites them from elsewhere.

For data set [1] the following is noted: patients receiving iron dextran.
For data set [2] the following is noted: study comparing iron dextran with sodium ferric gluconate.

For the substance iron dextran, in data set [1], the “significant adverse effects, share of patients” value was “approximately 26 % of patients”. In addition, the “occurrence of allergic episodes” value in data set [2] is 8.7 allergic episodes per million doses.
